# Test results taken from PubChem BioAssay AID1347075 (National Center for Advancing Translational Sciences (NCATS), 2019).
# Only a part is listed here, and it is no random draw. Inconclusive results are not listed. Some salts or complexes appear as unconnected parts, following the source record. Calls of active or inactive are those of the source. Calls follow the shape of the dose curve; as a rule, active = well fitted cell-killing curve with a large enough effect; inconclusive = small, poorly fitted or top-dose-only effect, or effect the other way; inactive = flat fitted curve, though single readings scatter.
# Assay: qHTS assay for MDR1-selective chemotherapeutics: Primary screen using the parental adenocarcinoma cell KB-3-1; also: nearly all actives have a fitted effect of over 60% in size
# Conditions: KB-3-1 viability, CellTiter-Glo ATP luminescence, 72 h; at 46.1 µM (top of the series)
# Excerpt: A prime difficulty in effectively treating cancer is the development of cellular resistance to multiple structurally unrelated anticancer drugs, a phenomenon known as multidrug resistance (MDR). […] Numerous strategies to overcome P-gp-mediated MDR have been explored, including the design of drugs that evade recognition and efflux, and development of inhibitors to block efflux and restore drug accumulation. […] An alternative approach is to exploit resistance by identifying drugs that target MDR cells over the non-resistant parental cells from which they were selected. […] The development of MDR1-selective agents represents a new strategy for resolving multidrug resistance, as it remains a long-standing clinical challenge for cancer chemotherapy.
# Our goal is to identify compounds that selectively kill P-gp-expressing MDR cells. We will identify MDR1-selective compounds by comparing toxicity of compounds in the screening library against parental, drug-naive (KB-3-1) adenocarcinoma cells as well as their drug-selected MDR sub-line (KB-V1). The differential toxicity of compounds against these two cell lines will be used to identify MDR1-selective compounds, whose cytotoxicity is potentiated, rather than diminished, by P-gp expression. This assay will be utilized to conduct a quantitative high-throughput screen (qHTS) in collaboration with the NIH Chemical Genomics Center to identify selective agents, and probe hits arising from the screen will be validated using secondary assays and characterized through a well-established follow-up research program. This screen was run against the entire NCGC library collection of about 400,000 compounds.
# NIH Molecular Libraries Probe Production Network [MLPCN]
# NIH Chemical Genomics Center [NCGC]
# PI: Michael Gottesman PhD, National Cancer Institute, NIH
# Briefly, 5 microL of media containing either KB-3-1 cells (columns 1-2, 4-48) are dispensed into Greiner white, treated solid-bottom 1536-well assay plates (media-only control is added to column 3). Compounds are then transferred via Kalypsys pin tool equipped with 1536-pin array (10 nL slotted pins, V&P Scientific, San Diego, CA). Following addition of compound, the plates are incubated at 37 degrees C for 72 hours. CellTiter-Glo (2.5 µL/well) is then added, and the plates are read in a ViewLux reader (Perkin-Elmer, clear luminescence filter, 1 second exposure, 1x binning) following a 10 minute incubation. All cells are dispensed in DMEM phenol-red free media containing 10% FBS.
# Library plates were screened starting from the lowest and proceeding to the highest concentration. Vehicle-only plates, with DMSO being pin-transferred to columns 5-48, will be inserted uniformly at the beginning and the end of each library in order to monitor and record any shifts in the background, which can be affected by reagent dispensers or loss in enzyme activity over time. Screening data will be corrected, normalized, and concentration-effect relationships will be derived by using publicly-available NCGC, NCATS curve fitting algorithms (http://ncgc.nih.gov/pub/openhts).
# % is scaled to controls: 0 for no effect and ±100 for the full control effect.
row,SMILES,"activity change, negative = cytotoxic"
1,CSc1ccccc1C(=O)NCC1(N2CCCCC2)CCCCC1,inactive: 0%
2,Cc1cccc(NC2(C#N)CCN(Cc3ccccc3)CC2)c1,inactive: 0%
3,O=C(NCC1(N2CCCCC2)CCCCC1)c1ccc(=O)[nH]c1,inactive: -7.06%
4,CCCCn1nnnc1C(CC)N1CCC(n2c(=O)[nH]c3ccccc32)CC1 (stereo not given),inactive: 0.0302%
5,O=C(NCC1(N2CCCCC2)CCCCC1)c1cccs1,inactive: -4.34%
6,CCCCn1nnnc1C(c1cccs1)N1CCC(n2c(=O)[nH]c3ccccc32)CC1 (stereo not given),inactive: -2.92%
7,COc1ccc(C(=O)NCC2(N3CCCCC3)CCCCC2)cc1,inactive: -0.211%
8,COc1ccc(C(=O)NCC2(N3CCCCC3)CCCCC2)c(OC)c1OC,inactive: -18.9%
9,CC(C)(C)OC(=O)N1CCC(N(C(=O)c2ccccc2)c2ccc(F)cc2)CC1,inactive: 2.28%
10,CCC(c1nnnn1C1CCCC1)N1CCC(n2c(=O)[nH]c3ccccc32)CC1 (stereo not given),inactive: 0.0302%
11,CCOC(=O)N1CCC(Nc2ccc(OC)cc2)CC1,inactive: -0.541%
12,CCCCn1nnnc1C(c1ccc(OC)cc1)N1CCC(n2c(=O)[nH]c3ccccc32)CC1 (stereo not given),inactive: -0.0184%
13,O=C(NCC1(N2CCCCC2)CCCCC1)c1ccc(Cl)s1,inactive: 11.6%
14,N#CC1(Nc2ccccc2)CCN(Cc2ccccc2)CC1,inactive: -12.7%
15,O=C(OC1CN2CCC1CC2)C1c2ccccc2Oc2ccccc21 (stereo not given),inactive: 4.96%
16,COc1ccc(Cl)cc1C(=O)NCC1(N2CCOCC2)CCCCC1,inactive: -2.07%
17,O=C(NCC1(N2CCOCC2)CCCCC1)c1cc2ccccc2o1,inactive: -3.6%
18,O=C(NCC1(N2CCCCC2)CCCCC1)c1ccc(Cl)nc1,inactive: 1.53%
19,Cc1cc(C)cc(N(C(=O)c2ccccc2)C2CCN(C(=O)OC(C)(C)C)CC2)c1,inactive: -2.67%
20,CCCCOc1ccc(C(=O)NCC2(N3CCOCC3)CCCCC2)cc1,inactive: -1.66%

row,SMILES,"activity change, negative = cytotoxic"
1,O=P1(N(CCCl)CCCl)SCCCS1,inactive: 0.223%
2,O=C(NCC1(N2CCCCC2)CCCCC1)c1ccc(F)cc1,inactive: -22.8%
3,CCOC(=O)N1CCC(Nc2ccc(F)cc2)CC1,inactive: -5.17%
4,COc1ccc(NC2CCN(CCc3ccccc3)CC2)c(OC)c1,inactive: -12.3%
5,COc1ccccc1C(=O)NCC1(N2CCOCC2)CCCCC1,inactive: 0.0677%
6,CCOc1ccc(C)cc1CN(CCCl)CCCl,inactive: -14.7%
7,O=C(NCC1(N2CCOCC2)CCCCC1)c1ccc(Cl)cc1,inactive: 2.27%
8,CC(C)(C)n1nnnc1C(c1ccccc1)N1CCC(n2c(=O)[nH]c3ccccc32)CC1 (stereo not given),inactive: -0.0835%
9,O=C1CCN(Cc2ccccc2)CC1,inactive: 0%
10,O=c1[nH]c2ccccc2n1C1CCN(C(c2cccc3ccccc23)c2nnnn2C2CCCC2)CC1 (stereo not given),inactive: -24.6%
11,CCOC(=O)N1CCC(Nc2cccc(C)c2)CC1,inactive: 5.58%
12,COc1cc(C(=O)NCC2(N(C)C)CCCCC2)ccc1OC(F)F,inactive: 5.74%
13,O=c1[nH]c2ccccc2n1C1CCN(C(c2ccccc2)c2nnnn2C2CCCCC2)CC1 (stereo not given),inactive: -4.09%
14,O=C(NCC1(N2CCCCC2)CCCCC1)c1cccc([N+](=O)[O-])c1,inactive: -3.04%
15,CCOc1ccc(C(=O)NCC2(N3CCOCC3)CCCCC2)cc1,inactive: 10.4%
16,CSc1ccc(C(=O)NCC2(N3CCOCC3)CCCCC2)cc1,inactive: 15.4%
17,CCN1CCC(Nc2ccc(Cl)cc2)CC1,inactive: 5.62%
18,O=C(NCC1(N2CCCCC2)CCCCC1)c1ccc(OC(F)F)cc1,inactive: -1.51%
19,COc1ccc(NC2CCN(C(=O)OC(C)(C)C)CC2)cc1,inactive: 9.46%
20,CC(C)c1ccc(C(=O)NCC2(N3CCOCC3)CCCCC2)cc1,inactive: -1.77%

row,SMILES,"activity change, negative = cytotoxic"
1,CN1CCN(CCOC(=O)C(O)(c2ccccc2)c2ccccc2)CC1,inactive: -2.09%
2,O=C(NCC1(N2CCOCC2)CCCCC1)c1cc(=O)[nH]c2ccccc12,inactive: -1.56%
3,COc1cc(C(=O)NCC2(N3CCCCC3)CCCCC2)ccc1OC(F)F,inactive: 6.82%
4,O=C(NCC1(N2CCCCC2)CCCCC1)c1cccc(C(F)(F)F)c1,inactive: -10.9%
5,O=[N+]([O-])c1cc([N+](=O)[O-])c(NCC2CCS(=O)(=O)C2)c([N+](=O)[O-])c1 (stereo not given),inactive: 2.81%
6,CCCCn1nnnc1C(c1ccnc2ccccc12)N1CCC(n2c(=O)[nH]c3ccccc32)CC1 (stereo not given),inactive: 0.0528%
7,COc1cc(OC)c(C(=O)NCC2(N(C)C)CCCCC2)cc1OC,inactive: 0.154%
8,CCC(c1nnnn1C(C)(C)C)N1CCC(n2c(=O)[nH]c3ccccc32)CC1 (stereo not given),inactive: -0.216%
9,O=C(NCC1(N2CCOCC2)CCCCC1)c1cc(F)c(F)cc1Cl,inactive: 4.84%
10,COc1ccc(CN(CCCl)CCCl)cc1Cl,inactive: 3.11%
11,CN(C)c1cccc(C(=O)NCC2(N3CCCCC3)CCCCC2)c1,inactive: -3.21%
12,O=[N+]([O-])c1cc([N+](=O)[O-])c(OC2CCCCC2O)c([N+](=O)[O-])c1 (stereo not given),inactive: -1.64%
13,CC(C)c1ccc(NC2CCN(C(=O)OC(C)(C)C)CC2)cc1,inactive: -8.26%
14,Cc1ccc(C(=O)NCC2(N(C)C)CCCCC2)o1,inactive: -21.3%
15,O=C(NCC1(N2CCOCC2)CCCCC1)c1ccccc1Br,inactive: 6.7%
16,CCCOc1ccc(C(=O)NCC2(N(C)C)CCCCC2)cc1OC,inactive: 0.279%
17,COc1ccc(C(c2nnnn2C2CCCC2)N2CCC(n3c(=O)[nH]c4ccccc43)CC2)cc1 (stereo not given),inactive: 0.0134%
18,CN1CCC(Nc2cccc(F)c2)CC1,inactive: -0.471%
19,COc1ccc2c(c1O)-c1c(O)c(OC)cc3c1[C@H](C2)[N+](C)(C)CC3.O=[N+]([O-])c1cc([N+](=O)[O-])c([O-])c([N+](=O)[O-])c1[O-],inactive: 4.95%
20,O=C(OC1CN2CCC1CC2)c1ccc([N+](=O)[O-])cc1 (stereo not given),inactive: -7.9%
